Results from PubChem BioAssay (NCATS).
The entries are a selection whose mix differs from that of the whole data set. Inconclusive results are not listed. The source made the active and inactive calls. The call rests on the fitted dose curve; in most records, active means well fitted inhibition curve with a large enough effect; inconclusive means small, poorly fitted or top-dose-only effect; inactive means no such curve, though single readings can be large or run the other way.

target: Retinaldehyde dehydrogenase 3 (Homo sapiens) (UniProt P47895); experiment: qHTS for Inhibitors of the Aldehyde Dehydrogenase Family (ALDH1A3) Primary screen (AID 2061315);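 further: plate controls were DMSO vehicle for no effect and reference inhibitor for full effect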; conditions: S. pombe CHP2027 cells, fluorescence laser cytometry, 18 h; at 56 µM (top of the series)

SMILES	activity change, negative = inhibition
O=C(O[C@H]1CN2CCC1CC2)C1NCc2ccccc2[C@@H]1c1ccccc1 (stereo partly drawn)	inactive: 7.87%
CN(C(=O)Cc1ccc(Cl)c(Cl)c1)[C@H]1CCCC[C@H]1N1CCCC1	inactive: -11.3%
CCn1c(=O)n([C@@H]2CCN(CC3CCCCCCC3)C[C@H]2CO)c2ccccc21	inactive: -2.04%
N#Cc1c(-c2ccc(-c3no[n+]([O-])c3C#N)cc2)no[n+]1[O-]	inactive: -21.4%
CN(C)C1(c2ccccc2)CCC2(CC1)OCCc1c2[nH]c2ccc(F)cc12 (stereo not drawn)	inactive: -4.19%

test system: not listed separately; experiment: BET inhibitor-based combinations targeting novel dependencies in MECOM-rearranged (r) AML: UCSD-AML1 cell line (AID 2202235); conditions: UCSD-AML1 AML cells viability, CellTiter-Glo, 48 h; series mostly up to 46 µM; viability (% of control): at the top concentration; further: nearly all actives have a fitted effect of over 40% in size; further: potency means the concentration at half of the fitted maximal effect;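 on viability (% of control): plate controls were DMSO vehicle wells for no effect and blank wells for full effect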

SMILES	Potency	viability (% of control)
N[C@@H](Cc1ccc([N+]([O-])(CCCl)CCCl)cc1)C(=O)O	active: 3.32 µM	–
CCn1c(=O)n([C@@H]2CCN(CC3CCCCCCC3)C[C@H]2CO)c2ccccc21	active: 16.6 µM	–
CN(C)C1(c2ccccc2)CCC2(CC1)OCCc1c2[nH]c2ccc(F)cc12 (stereo not drawn)	–	inactive: 108%
